{"source": "patent US10634665B2", "about": "(priority 2014, dated 2020)", "test_system": "lung organ device", "assay": "Evaluation of non-toxic and toxic compounds in the lung organ device", "conditions": "low doses", "data": [{"substance": "beclonethasone diproprionate", "values": [{"measurement": "organ damage", "value": "no organ damage"}]}]}
